Our source for the inhibition values is PubChem BioAssay AID2013 (Sanford-Burnham Center for Chemical Genomics, 2009).

Sequences of proteins named here, by UniProt entry; tags and fusion partners are left off.
UniProt Q9Y2T6, whole entry: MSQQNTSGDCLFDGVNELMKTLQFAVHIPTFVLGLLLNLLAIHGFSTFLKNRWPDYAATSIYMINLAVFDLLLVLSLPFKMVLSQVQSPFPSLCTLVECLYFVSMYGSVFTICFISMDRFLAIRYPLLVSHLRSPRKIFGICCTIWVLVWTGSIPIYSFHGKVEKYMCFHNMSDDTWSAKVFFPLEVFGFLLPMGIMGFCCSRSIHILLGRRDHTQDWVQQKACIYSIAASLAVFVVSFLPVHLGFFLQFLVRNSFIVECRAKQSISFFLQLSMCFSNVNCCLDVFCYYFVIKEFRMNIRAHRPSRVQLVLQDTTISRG

Only a part is listed here, and it is no random draw. Entries with a potency or affinity are not part of this list. Activity calls are given as the source filed them.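 The calls were made as follows: active = spots per cell inhibited over 60%, with over 100 cells counted and total cytoplasm intensity under 500,000; inconclusive = wells with under 100 cells, flagged as likely toxic; inactive = the rest.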

The target in this assay is G-protein coupled receptor 55 (Homo sapiens) (UniProt Q9Y2T6). In words: GPR55 antagonists blocking LPI-driven arrestin recruitment, primary screen, imaging, U2OS, beta-arrestin-GFP, LPI agonist (AID 2013).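 Also: U2OS cells stably carrying GPR55 and arrestin-GFP stimulated by 5 µM LPI near EC80; imaged beta-arrestin-GFP aggregate spots per cell after agonist stimulation; plate controls were LPI-stimulated DMSO wells for no effect and DMSO wells without LPI for full effect.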 The settings on record: U2OS GPR55 beta-arrestin-GFP translocation imaging, LPI antagonism; at 10 µM; active compounds read high. (In general: Recruitment of arrestin is a read-out of receptor activation apart from second messengers.)
Regarding `COc1ccccc1OP(C)(=O)Nc1ccc(C)c(C)c1` (centres undefined), the inhibition was inactive: 11.2%. Then `COc1ccc(OP(C)(=O)Nc2ccccc2Br)cc1` (centres undefined), with inactive: 0.9%.

`Cc1cc(C)cc(OP(C)(=O)Nc2cccc(C(F)(F)F)c2)c1` (centres undefined): the inhibition is inactive: 12.6%. Then `CP(=O)(OCCOc1ccccc1)OCCOc1ccccc1`, with inactive: 1.6%.

Regarding `CP(=O)(Nc1ccc(Cl)cc1Cl)Oc1ccccc1` (centres undefined), the inhibition is inactive: 4.9%. As for `Cc1nc2ccc3ccccc3c2o1.O=[N+]([O-])c1cc([N+](=O)[O-])c(O)c([N+](=O)[O-])c1`, the figure is inactive: -8.3%. As for `COc1ccc(OP(C)(=O)Nc2ccccn2)cc1` (centres undefined), the figure is inactive: -9.8%; as for `CN(C)CCOC(=O)C(O)(c1ccccc1)C1CCCC1` (centres undefined), inactive: -10.6%; as for `COc1ccccc1OP(C)(=O)Nc1ccc(Br)cc1` (centres undefined), inactive: 3%. Then `COc1ccccc1OP(C)(=O)Nc1ccc(C)cc1C` (centres undefined), with inactive: -9.2%. Regarding `CP(=O)(Nc1ccccn1)Oc1ccccc1` (centres undefined), the inhibition was inactive: 5%. Then `CCc1ccc(OP(C)(=O)O)cc1`, with inactive: -4.4%; and `O=[N+]([O-])c1cc([N+](=O)[O-])c(Nc2ccccn2)c([N+](=O)[O-])c1`, with inactive: -5.1%.

As for `Cc1c(NP(C)(=O)Oc2ccc(C(C)C)cc2)c(=O)n(-c2ccccc2)n1C` (centres undefined), the inhibition was inactive: -7.9%. As for `O=C(OCCCN1CCCC1)C(O)(c1ccccc1)C1CCCCC1` (centres undefined), the figure is inactive: -5.1%; as for `COc1ccccc1OP(C)(=O)Nc1c(C)n(C)n(-c2ccccc2)c1=O` (centres undefined), inactive: 3.9%; as for `CCc1ccc(OP(C)(=O)Nc2cccnc2)cc1` (centres undefined), inactive: 4.2%. Then `CP(=O)(Oc1ccccc1)N1CCOC1=O` (centres undefined), with inactive: 7.5%; and `COc1ccc(OP(C)(=O)Nc2ccc(Br)cc2)cc1` (centres undefined), with inactive: 1.2%. Then `CCN(CC)CC(O)COC(=O)C(O)(c1ccccc1)C1CCCCC1` (centres undefined), with inactive: -3.5%. For `CN(C)C(=O)c1c([N+](=O)[O-])cc([N+](=O)[O-])cc1[N+](=O)[O-]`, the inhibition is inactive: 8.5%. As for `CC(C)(C)c1ccc(OP(C)(=O)O)cc1`, the figure is inactive: -7.7%. Then `COc1ccccc1OP(C)(=O)Nc1ccccc1Br` (centres undefined), with inactive: 6%; and `CP(=O)(Nc1ccc(Cl)cc1)Oc1ccc(F)cc1` (centres undefined), with inactive: 26.7%. As for `CCOC(=O)c1ccc(NP(C)(=O)Oc2ccc(Cl)cc2)cc1` (centres undefined), the figure is inactive: 10.8%.

On to `CP(=O)(OC12CC3CC(CC(C3)C1)C2)OC12CC3CC(CC(C3)C1)C2`, for which the inhibition was inactive: -16.7%. For the molecule `CN(C)CCOC(=O)C(O)(c1ccccc1)C1CCCCC1` (centres undefined), the inhibition is inactive: 20.7%.

For `COc1ccc(NP(C)(=O)Oc2ccccc2OC)cc1` (centres undefined), the inhibition is inactive: 1.1%. As for `COc1ccc(OP(C)(=O)Nc2cccc(Br)c2)cc1` (centres undefined), the figure is inactive: 33.4%.

One may read the inhibition as the relative decrease from the control value, in per cent.
